CLint scaled and Ratio EC50 data for four compounds are collected here from ChEMBL document CHEMBL3627606, “Development of Novel, CNS Penetrant Positive Allosteric Modulators for the Metabotropic Glutamate Receptor Subtype 1 (mGlu1), Based on an N-(3-Chloro-4-(1,3-dioxoisoindolin-2-yl)phenyl)-3-methylfuran-2-carboxamide Scaffold, That Potentiate Wild Type and Mutant mGlu1 Receptors Found in …” (J Med Chem, 2015).

For series [1], the species on record is Homo sapiens. As to the kind of experiment: Intrinsic clearance in human hepatocytes at 1 uM by LC-MS/MS analysis. The conditions noted are these: read-out: CLH.
Series [2] is filed under the species Homo sapiens. As to the kind of experiment: Selectivity index, ratio of EC50 for human mGlu4 receptor to EC50 for human mGlu1 receptor.

On to `O=C(Nc1ccc(N2C(=O)c3cccc(Cl)c3C2=O)c(Cl)c1)c1ncccc1Cl`, for which the CLint scaled at 1 µM in the series filed under Homo sapiens [1] worked out at 9.46 mL/min/kg. Regarding `Cc1ccoc1C(=O)Nc1ccc(N2C(=O)c3ccncc3C2=O)c(Cl)c1`, the CLint scaled at 1 µM in the series listed under Homo sapiens [1] was found to be 18.6 mL/min/kg. In the case of `Cc1ccoc1C(=O)Nc1ccc(N2C(=O)c3ccc(Cl)cc3C2=O)c(Cl)c1`, the CLint scaled at 1 µM in the series listed under Homo sapiens [1] amounted to 2.54 mL/min/kg. Also, the Ratio EC50 in the series filed under Homo sapiens [2] came out at 27.8. With `O=C(Nc1nc(C(F)(F)F)co1)C1c2ccccc2Oc2ccccc21`, in the series filed under Homo sapiens [1], the CLint scaled at 1 µM came to 19.4 mL/min/kg.
